The results in this text go back to ChEMBL document CHEMBL1153667, “6N-Cinnamoyl--naltrexamine and its p-nitro derivative. High efficacy -opioid agonists with weak antagonist actions” (Bioorg Med Chem Lett, 1996).

Protein sequences, listed by entry. Tags and fused reporters are not part of them.
UniProt P97266, whole entry, looked up: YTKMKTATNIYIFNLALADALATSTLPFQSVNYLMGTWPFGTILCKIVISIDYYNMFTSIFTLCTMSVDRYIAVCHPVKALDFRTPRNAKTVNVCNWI

This assay has as its target Mu-type opioid receptor (Cavia porcellus, UniProt P97266). In words: Compound was evaluated for binding affinity against [3H]- DAMGO labeled mu opioid receptor in guinea-pig brain homogenate.

In general, Ki refers to the equilibrium dissociation constant of an inhibitor or competing ligand from its target. Low readings indicate tighter binding, high ones weaker binding. On to `COC(=O)/C=C/C(=O)N[C@@H]1CC[C@@]2(O)[C@H]3Cc4ccc(O)c5c4[C@@]2(CCN3CC2CC2)[C@H]1O5`, for which affinity was put at a Ki of 0.4 nM.
